Several values for one entry are separate records, joined by “and”; a condition that tells them apart may be missing. Equal entries are not always repeated. This is a selection; strong and weak results do not stand in their true shares. Activity calls are given as the source filed them.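 How the source made its calls: active means activation, meaning protection from cell death, of at least 50% relative to plate controls; inactive means activation below 50%.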
Assay: rescue of FADD-deficient Jurkat cells from TNF-alpha death – single concentration, primary screen (AID 463075);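 further: necroptosis triggered by 40 ng/mL TNF-alpha added together with compound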
Details: Jurkat FADD-/- TNF necroptosis rescue, ATP luminescence, 24 h; at 10 µM; stronger effect = higher value; 0 = TNF only, 100 = no-TNF cells

Row | Compound | activation (protection from cell death)
1 | O=C(OC1CN2CCC1CC2)c1cccc(Cl)c1 (configuration not stated) | inactive: 0.686%
2 | CC(=O)NC(SC(=S)N(C)C)C(Cl)(Cl)Cl (configuration not stated) | inactive: -21.4%
3 | O=[N+]([O-])c1ncn(CCn2cnc([N+](=O)[O-])n2)n1 | inactive: 1.63%
4 | O=[As](O)(c1ccccc1)c1ccc(O)cc1 | inactive: -0.801%
5 | O=C(NC1CCS(=O)(=O)C1)NP(=S)(Oc1ccccc1)Oc1ccccc1 (configuration not stated) | inactive: -1.54%
6 | CCNC(=S)/N=C(\N)N[N+](=O)[O-] | inactive: 0.463%
7 | Cc1ccc(NP(=O)(Oc2cccc(C)c2)Oc2cccc(C)c2)nc1 | inactive: -0.286%
8 | CCOC(=O)NC(Sc1ccccc1)C(Cl)(Cl)Cl (configuration not stated) | inactive: -11%
9 | c1ccc(-c2nn[nH]n2)c(-c2nn[nH]n2)c1 | inactive: 0.654%
10 | O=c1c2cc([N+](=O)[O-])ccc2[nH]c2c([N+](=O)[O-])cc([N+](=O)[O-])cc12 | inactive: -8.52%
11 | CN(C)C(=O)Oc1noc2ccccc12 | inactive: 1.04%
12 | Cc1ccccc1OP(=O)(Nc1ccccn1)Oc1ccccc1C | inactive: -9.95%
13 | CC(=O)NC(SC(=S)N(CC(C)C)CC(C)C)C(Cl)(Cl)Cl (configuration not stated) | inactive: 4.51%
14 | Cc1ccc(OP(=O)(Nc2ccccn2)Oc2ccc(C)cc2)cc1 | inactive: 0.291%
15 | COC(=O)c1cc2c(s1)N=C(c1ccccc1)N(C)P2(=O)N1CCOCC1 (configuration not stated) | inactive: 0.149%
16 | CCC(=O)N1C2C3N(C(=O)CC)C1C1N(C(=O)CC)C(C(N1C(=O)CC)N3C(=O)CC)N2C(=O)CC | inactive: -0.974%
17 | CC(C)(C)C(=O)NC(Sc1ccccc1)C(Cl)(Cl)Cl (configuration not stated) | inactive: -0.362%
18 | CCOc1ccc(C2=NCC(CBr)S2)cc1 (configuration not stated) | inactive: -9.48%
19 | O=P1(Nc2nc3ccc(Cl)cc3s2)COc2ccccc2O1 (configuration not stated) | inactive: -0.973%

Row | Compound | activation (protection from cell death)
20 | CC(=O)Nc1ccc(Oc2c([N+](=O)[O-])cc([N+](=O)[O-])cc2[N+](=O)[O-])cc1 | inactive: 0.271%
21 | CC(=O)Nc1ccc([As](=O)(O)O)c(O)c1 | inactive: 3.85%
22 | C[C@H]1OP(=O)(Oc2ccccc2)C[C@@H]2O[C@@H]21 (some centres not stated) | inactive: -1.1%
23 | C[C@@H]1C=CCP(=O)(Oc2ccccc2)O1 (some centres not stated) | inactive: -0.633%
24 | Cc1ccc(OP(=O)(Nc2nccs2)Oc2ccc(C)cc2)cc1 | inactive: -0.911%
25 | COc1ccccc1OP(=O)(Nc1ccc(C)cn1)Oc1ccccc1OC | inactive: 0.599%
26 | CN1CCCC(OC(=O)C(c2ccccc2)c2ccccc2)C1 (configuration not stated) | inactive: -0.835%
27 | Clc1ccc(Cl)c(NC2=NCC(CBr)S2)c1 (configuration not stated) | inactive: -2.4%
28 | NC(=O)c1cc([N+](=O)[O-])cc([N+](=O)[O-])c1N | inactive: 0.154%
29 | Cc1ccc(N/C(=N/P(=O)(N2CCOCC2)N2CCOCC2)N2CCOCC2)cc1 | inactive: -0.594%
30 | Nc1cc(N)c2nonc2c1[N+](=O)[O-] | inactive: -0.0135%
31 | CC(C)CC(=O)NC(Sc1ccc(Cl)cc1)C(Cl)(Cl)Cl (configuration not stated) | inactive: -2.14%
32 | O=C(NC(Sc1ccncn1)C(Cl)(Cl)Cl)c1ccccc1 (configuration not stated) | inactive: 0.818%
33 | Cc1c2non([O-])c-2c(C)[n+](=O)[n+]1[O-] | inactive: -11.7%
34 | Oc1ccccc1CNc1ccccn1 | inactive: 9.09%
35 | Cc1ccc(NP(=O)(Oc2ccccc2F)Oc2ccccc2F)nc1 | inactive: 0.627%
36 | Cc1cc(SC(NC(=O)c2ccc(F)cc2)C(Cl)(Cl)Cl)ncn1 (configuration not stated) | inactive: 2.41%
37 | CCOP(=O)(Nc1ccccc1)OCC | inactive: 0.284% and inactive: -0.215%
38 | CC(=O)Nc1ccc([As](=O)(O)O)cc1 | inactive: 0.454%

Row | Compound | activation (protection from cell death)
39 | O=P(Nc1nc2ccc(Cl)cc2s1)(c1ccccc1)c1ccccc1 | inactive: 5.89%
40 | CCN(N=Nc1nonc1N)c1nonc1N | inactive: 1.8%
41 | Nc1cccc2ccc([As](=O)(O)O)cc12 | inactive: 3.29%
42 | O=C(Nc1cc([As](=O)(O)O)ccc1O)c1ccccc1 | inactive: 0.996%
43 | O=[N+]([O-])c1cccc(NC2=NCC(CBr)S2)c1 (configuration not stated) | inactive: -1.13%
44 | O=C(O)CNc1ccc([As](=O)(O)O)cc1 | inactive: 1.09%
45 | CC(C)(C)C(=O)NC(Sc1ccncn1)C(Cl)(Cl)Cl (configuration not stated) | inactive: 1.84%
46 | O=[N+]([O-])c1ncn(CCn2ncnc2[N+](=O)[O-])n1 | inactive: 0.788%
47 | CC(=O)N1C2C3N(C(C)=O)C1C1N(C(C)=O)C(C(N1C(C)=O)N3C(C)=O)N2C(C)=O | inactive: -1.16%
48 | O=[N+]([O-])c1cccc2n[nH]nc12 | inactive: -0.648%
49 | O=[N+]([O-])c1cc([N+](=O)[O-])c(CCNc2ccccc2)c([N+](=O)[O-])c1 | inactive: -4.78%
50 | Cc1ccc(NP(=O)(Oc2ccccc2)Oc2ccccc2)nc1 | inactive: 1.11%
51 | COc1ccc(C2=NCC(CBr)S2)cc1 (configuration not stated) | inactive: -0.701%
52 | CN(C)C(=O)OCCc1n(C)cc[n+]1C | inactive: 1.44%
53 | CC(C)=N/N=C(\N)N[N+](=O)[O-] | inactive: 0.432%
54 | CC1CCN(C(=O)Oc2c(Cl)cc(Cl)c3cccnc23)CC1 | inactive: -1.99%
55 | C[N+]1=C2C=CC=CC=C2SC12C([N+](=O)[O-])=CC([N+](=O)[O-])=C[C-]2[N+](=O)[O-] (configuration not stated) | inactive: -23.4%
56 | Nc1ccc([As](=O)(O)c2ccc(N)cc2)cc1 | inactive: 1.86%
57 | CCN(/C(=N/P(=O)(N1CCOCC1)N1CCOCC1)N1CCOCC1)c1ccc(OC)cc1 | inactive: 0.226%

Reference: PubChem BioAssay AID463075 (University of Pittsburgh Molecular Library Screening Center, 2010)
